Yeast UUG start: alters start codon recognition fidelity in yeast. S. cerevisiae UUG-firefly luciferase reporter, luminescence/redox ratio. 350,000 tested, 0.13% active. activity score, % at 18.7 µM. AID 602363;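 active means replicate mean at a twofold rise or more, about +100% in these data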;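 further: firefly luciferase made from a UUG start codon reports start codon fidelity; reporter light over untreated wells divided by growth signal over untreated wells; some hits fall short of that in this replicate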
MC4R barr agon: human MC4R agonism via beta-arrestin | P32245 | U2OS MC4R beta-arrestin complementation, luminescence; percent of melanotan II response, DMSO zero | activation, % at 8.9 µM | 360,000 tested, 0.98% active;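 active = activation above a per-plate cutoff, the mean activation of sample wells on that plate plus 3 SD, cut at about 8% in these data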
MC4R antag cAMP: blocks human MC4R cAMP signaling; P32245; MC4R-expressing cells, MTII-stimulated cAMP, LANCE TR-FRET; inhibition, % at 6.5 µM; 360,000 tested, 0.48% active; AID 540295;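 active = inhibition above its plate's cutoff, the mean of tested wells on that plate plus 3 SD, cut at about 29% in these data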;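 also: 0% = Melanotan II alone and 100% = Melanotan II plus saturating MCL0020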
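Material: U2OS-MC4R stable cell line | Reagent: Melanotan II challenge after compound preincubation | Doses: One concentration, 6.5 µM nominal | Incubation: 30-min compound preincubation, 1-h Melanotan II challenge, 1-h detection, room temperature | Signal: TR-FRET cAMP assay | Replicates: One well per compound, no replicates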
NALP1 yeast inh: NALP1 inhibition. S. cerevisiae NALP1/ASC/caspase-1 growth, X-gal OD620, 72 h. inhibition, % at 10 µM. 280,000 tested, 0.61% active. AID 2071; in the data active = inhibition mostly above about 24%, no sharp cut-off; inactive = mostly below about 32%
ALR inh: inhibitors of human sulfhydryl oxidase ALR; P55789; purified ALR, DTT oxidation, H2O2 HRP-luminol luminescence; inhibition, % (test concentration not listed); hit rate 3.8% among 290,000; AID 485317;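 active = mean and each replicate at 75% or more; inconclusive = only one of the two met; inactive = neither met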;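 also: stock transfer was 7.5 nL into about 7.5 µL; 0% = neutral wells and 100% = wells with inactivated enzyme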
HDAC3 inh: inhibitors of human histone deacetylase 3 | O15379 | recombinant HDAC3, fluorogenic peptide/trypsin coupled, fluorescence | inhibition, % at 8.3 µM | 320,000 tested, 0.15% active | AID 2718; in the data active = inhibition above about 26%, passing the limit was not always enough
* hit, by the source's call; x = no result. This is a sample that favours compounds with a hit; in the whole collection about 4.2% have one here.

Every second line gives: Yeast UUG start	MC4R barr agon	MC4R antag cAMP	NALP1 yeast inh	ALR inh	HDAC3 inh
1: Cc1cc(C(=O)Nc2cccc3c2O[C@@H](CN(C)CC2CC2)[C@@H](C)CN([C@H](C)CO)C3=O)n(C)n1
  -23.9	x	x	x	x	x
2: CCCCCCCCCC[n+]1cccc2c3ccccc3ccc21
  x	49.2*	-17.2	25.6*	x	x
3: O=C(c1cccc(F)c1)N1CCC(c2nc3ccccc3s2)CC1
  -10.9	-1.8	1.5	6.0	99.6*	1.5
4: O=C(NCc1ccco1)c1ccccc1NS(=O)(=O)c1ccc(Cl)s1
  -23.5	-0.8	10.7	7.1	95.0*	2.4
5: O=C(NCc1ccco1)c1ccccc1NS(=O)(=O)c1cccs1
  x	-1.4	6.6	-1.0	0.7	0.0
6: COc1ccc(/C=C(\C#N)C(=O)c2c(C)[nH]c3ccccc23)cc1OC
  3.8	-1.5	-3.0	15.6	14.7	2.5
7: COc1cc(/C=C(\C#N)C(=O)c2c(C)[nH]c3ccccc23)cc(OC)c1OC
  x	0.9	-4.8	12.6	96.2*	5.7
8: Cc1ccc(CSC(Nc2ccc(F)cc2)=C(C#N)C#N)cc1
  x	-0.7	2.8	27.3	-7.6	5.8
9: CCN(CC)C(=O)CSC(Nc1ccc(F)cc1)=C(C#N)C#N
  -18.6	1.0	0.1	-3.3	98.8*	7.9
10: CC1CCc2c(C(=O)Nc3ccc(N4CCOCC4)cc3)csc2C1 (stereo not given)
  x	-1.4	24.0	27.2*	5.3	x
11: Nc1ccccc1OCCOCCOCCOc1ccccc1N
  -9.8	0.9	15.7	5.4	96.8*	9.1
12: Nc1ccccc1OCP(=O)(c1ccccc1)c1ccccc1
  x	-2.5	3.1	24.5	96.2*	-0.7
13: Fc1cccc(Cl)c1Cc1noc(/C=C/c2ccccc2)n1
  -17.8	1.7	2.3	27.9*	-3.7	1.5
14: C(=C\c1nc(-c2ccccc2)no1)/c1ccccc1
  1.1	0.0	7.4	41.3	-44.0	8.0
15: COc1ccc(CN(C)C[C@@H]2OCCCC[C@@H](C)Oc3ccc(NC(=O)Nc4ccccc4)cc3C(=O)N([C@@H](C)CO)C[C@H]2C)cc1
  22.7	x	x	x	x	x
16: O=c1[nH]c2ccc(Cl)cc2c(-c2ccccc2)c1[N+](=O)[O-]
  -1.9	9.3*	3.8	10.4	-6.2	-3.1
17: CCOc1ccc(-c2cc(N3C(=O)Nc4ccccc4N3O)n[nH]2)cc1
  x	-0.7	8.5	-4.1	97.7*	4.3
18: COc1cccc(-c2cc(N3C(=O)Nc4ccccc4N3O)n[nH]2)c1
  1.1	-1.6	9.4	17.8	-23.6	3.7
19: CCOC(=O)C(=NCC1CCCO1)NNc1cc(Cl)ccc1Cl (stereo not given)
  x	2.5	19.3	x	99.0*	3.4
20: CCOc1ccc(Cl)cc1S(=O)(=O)N1CCC(C(=O)NCC2CCCO2)CC1 (stereo not given)
  1.9	-0.2	-0.5	9.5	1.9	-3.4

The closing 5 compounds of the section before are carried over, then new ones follow:
Every second line gives: Yeast UUG start	MC4R barr agon	MC4R antag cAMP	NALP1 yeast inh	ALR inh	HDAC3 inh
16: O=c1[nH]c2ccc(Cl)cc2c(-c2ccccc2)c1[N+](=O)[O-]
  -1.9	9.3*	3.8	10.4	-6.2	-3.1
17: CCOc1ccc(-c2cc(N3C(=O)Nc4ccccc4N3O)n[nH]2)cc1
  x	-0.7	8.5	-4.1	97.7*	4.3
18: COc1cccc(-c2cc(N3C(=O)Nc4ccccc4N3O)n[nH]2)c1
  1.1	-1.6	9.4	17.8	-23.6	3.7
19: CCOC(=O)C(=NCC1CCCO1)NNc1cc(Cl)ccc1Cl (stereo not given)
  x	2.5	19.3	x	99.0*	3.4
20: CCOc1ccc(Cl)cc1S(=O)(=O)N1CCC(C(=O)NCC2CCCO2)CC1 (stereo not given)
  1.9	-0.2	-0.5	9.5	1.9	-3.4
21: CN1CCN(C(=O)C[C@H]2C[C@H]3c4cc(NC(=O)Nc5ccc(F)cc5)ccc4O[C@H]3[C@H](CO)O2)CC1
  -4.9	x	x	x	x	x
22: O=C(CSc1nnc2n1CCCN2)c1ccc(Cl)cc1
  -17.7	-2.0	0.3	13.0	31.3	0.8
23: O=C(CSc1nnc2n1CCCN2)c1ccc([N+](=O)[O-])cc1
  x	-2.1	-5.4	x	97.4*	-3.4
24: O=C(NC1=NCCS1)c1ccc(C(F)(F)F)cc1
  -6.7	-1.8	-0.8	7.7	-3.8	-0.5
25: O=C(Nc1ncccn1)c1ccc(C(F)(F)F)cc1
  x	-1.0	13.1	27.6	97.2*	6.1
26: C[C@H](CO)N1C[C@H](C)[C@H](CN(C)CC2CC2)Oc2ccc(NC(=O)Nc3ccc(F)cc3)cc2CC1=O
  3.2	x	x	x	x	x
27: CCCOc1ccc(C(=O)C(CN2CCCC2)c2ccccc2)cc1 (stereo not given)
  x	0.3	3.1	59.7*	96.0*	4.7
28: CCCCOc1ccc(C(=O)C(CN2CCOCC2)c2ccccc2)cc1 (stereo not given)
  6.1	0.4	5.9	-7.3	5.6	8.0
29: COCC#Cc1cnc2c(c1)C(=O)N([C@H](C)CO)C[C@@H](C)[C@@H](CN(C)S(=O)(=O)c1cn(C)cn1)O2
  -5.0	x	x	x	x	x
30: Cc1cc(C)cc(Cn2ncc(Cl)c(Cl)c2=O)c1
  x	x	x	46.0	95.8*	2.5
31: O=c1c(Cl)c(Cl)cnn1Cc1ccccc1Cl
  x	x	x	27.7	95.0*	-2.0
32: CCCNC(=O)N[C@H]1CC[C@@H](CC(=O)N2CCN(C)CC2)O[C@H]1CO
  -9.2	x	x	x	x	x
33: O=C(CCCN1C(=O)S/C(=C\c2ccccc2)C1=O)NNC(=O)c1ccccc1O
  x	8.4*	2.4	-0.6	-1.7	1.0
34: O=C(CN1C(=O)S/C(=C\c2ccccc2)C1=O)NNC(=O)c1ccccc1O
  x	0.1	12.7	14.2	0.0	-1.8
35: CC(/C=C1\SC(=O)N(CCCC(=O)O)C1=O)=C\c1ccccc1
  -71.0	-0.6	24.6	21.6	96.9*	5.7
36: COCC(=O)Nc1ccc2c(c1)C(=O)N(C)C[C@@H](OC)[C@H](C)CN(Cc1ccncc1)[C@@H](C)CO2
  -11.8	x	x	x	x	x
37: O=C(O)CSc1nnc(-c2ccccc2)o1
  -2.8	-1.4	-2.3	-5.2	-7.1	-5.2
38: Cc1nnc(SCC(=O)O)o1
  x	-1.7	-11.5	25.9*	-0.6	-9.1
39: CCC(=O)N(C)C[C@H]1Oc2ncc(-c3ccccc3C)cc2C(=O)N([C@H](C)CO)C[C@H]1C
  6.9	x	x	x	x	x
40: CSCC[C@H](NC(=O)N1CCn2c1nc1ccccc12)C(=O)NCc1ccco1
  -9.3	-2.6	7.8	-2.7	96.2*	13.4

Other records follow.
Every second line gives: Yeast UUG start	MC4R barr agon	MC4R antag cAMP	NALP1 yeast inh	ALR inh	HDAC3 inh
41: Cc1noc(C)c1NC(=O)N(C)C[C@H]1OCCCC[C@H](C)Oc2ccc(N(C)C)cc2C(=O)N([C@H](C)CO)C[C@@H]1C
  7.3	x	x	x	x	x
42: CCOC(=O)c1[nH]c2cc(OC)c(OC)cc2c1NC(=O)CN(C)C1CCCCC1
  -12.5	4.5	-14.6	14.9	97.0*	-10.8
43: CCCC(=O)Nc1ccc2c(c1)C(=O)N(C)[C@@H]1CC[C@H](CC(=O)NCCc3ccncc3)O[C@@H]1CO2
  -10.0	x	x	x	x	x
44: C[C@H]1CN([C@@H](C)CO)C(=O)c2cc(-c3cccc(C#N)c3)cnc2O[C@H]1CN(C)Cc1ccncc1
  -7.4	x	x	x	x	x
45: C[C@H](N)c1nnc(SCc2ccc(Cl)cc2Cl)o1
  -5.2	-0.3	8.8	25.1	98.7*	1.4
46: O=c1[nH]c2ccccc2nc1Cc1ccc([N+](=O)[O-])cc1
  -6.6	1.4	18.7	12.3	95.4*	-9.9
47: O=c1[nH]c2ccccc2nc1Cc1ccc(Cl)cc1
  -6.8	-0.9	10.0	7.2	-6.8	1.5
48: COc1ccccc1-c1ccc2c(c1)[C@H]1[C@H](CCN1S(=O)(=O)c1ccccc1F)[C@H](CO)N2
  -14.7	x	x	x	x	x
49: NC(=S)N/N=C/c1c[nH]c2ccc(OCc3ccccc3)cc12
  -35.3	0.2	-3.5	-11.3	98.9*	4.7

Compound activity (PubChem BioAssay)
